# Antibody variant affinities, Ab-14 light chain, assay 1

Data: MIT Lincoln Laboratory AlphaSeq set, Engelhart et al. 2022, doi:10.1038/s41597-022-01779-4, as distributed in FLAb.

All variants were tested on one target, the spike HR2 peptide PDVDLGDISGINAS (SARS-CoV-2).

Each scFv is VH, a 15-residue (Gly4Ser)3 linker, VL, as in the parent Ab-14, and differs from it in the CDRs of the light chain only.
VH: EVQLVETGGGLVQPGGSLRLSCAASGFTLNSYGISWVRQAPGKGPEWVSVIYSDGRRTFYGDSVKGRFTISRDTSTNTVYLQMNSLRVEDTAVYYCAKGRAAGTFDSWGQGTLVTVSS
VL: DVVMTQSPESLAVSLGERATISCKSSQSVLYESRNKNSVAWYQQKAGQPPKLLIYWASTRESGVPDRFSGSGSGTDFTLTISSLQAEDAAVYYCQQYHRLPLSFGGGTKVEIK

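The parent was found by panning a naive human phage display library on the peptide. The library (AAYL50) carries one to three amino acid substitutions per variant, with no insertions or deletions. In AlphaSeq, yeast of one mating type display the scFv and yeast of the other type display the target. After mating in shaken culture at 30 °C for 16 h, diploids were selected and their barcode pairs sequenced. Each replicate has its own calibration line, from reference interactions of the BCL2 family. Each pool was mated in three replicate cultures.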

Changes read parent residue, position, new residue, counted from the first residue of the VL shown.
Values are log10 of the apparent Kd in nM; lower means stronger binding.
The mean shown is taken over the replicates in which the pair was detected.
"not detected" means that the variant was in the library but no mating with the target was seen in any replicate; the authors take this as a sign of poor binding, and no number exists.
Nonspecific signal, from three strains lacking the peptide, appeared in 18% of pairings of library AAYL50, centred on 4.19 (5% of these signals below 2.99); values are not corrected for it. The control count says in how many pairings with the empty strains this scFv gave a signal.
Parent in this assay: reference entry 0.65, copy in this library 1.68.

| changes | mean log10 Kd (nM) | seen in | empty controls |
|---|---|---|---|
| Q96L/Y97F/L102D | 3.88 | 3 of 3 | 1 of 9 |
| S26T/L102P/S103R | 3.65 | 1 of 3 | 1 of 9 |
| N35G/S62C/Q95H | not detected | 0 of 3 | 2 of 9 |
| Q27I/R60A/Y97H | not detected | 0 of 3 | 0 of 9 |
| N37H/T59H | not detected | 0 of 3 | 0 of 9 |
| K24H/A40I/H98I | not detected | 0 of 3 | 0 of 9 |
| Q27I/E32Y/S38W | 3.80 | 1 of 3 | 3 of 9 |
| W56Q/R60C/Y97Q | 2.71 | 3 of 3 | 8 of 9 |
| L30M/R34D/N35D | 0.28 | 3 of 3 | 1 of 9 |
| V39N/L100T | 5.47 | 3 of 3 | 4 of 9 |
| N37H/W56V/S62P | 3.91 | 3 of 3 | 1 of 9 |
| S33V/S38Y/R60I | 4.05 | 1 of 3 | 1 of 9 |
| S28Y/E32F/R34K | 2.88 | 1 of 3 | 1 of 9 |
| S58E/R99Y/S103H | 1.74 | 3 of 3 | 2 of 9 |
| V39A/T59F/L100D | not detected | 0 of 3 | 0 of 9 |
| K24G/E32N/N35T | 1.84 | 3 of 3 | 2 of 9 |
| S28D/A40H/S103K | not detected | 0 of 3 | 0 of 9 |
| S62R/Q96G/Y97T | 4.74 | 1 of 3 | 1 of 9 |
| S25I/E32Y/P101A | 0.66 | 3 of 3 | 2 of 9 |
| Q27V/S28W/A57L | not detected | 0 of 3 | 3 of 9 |
| T59C/R60M | not detected | 0 of 3 | 0 of 9 |
| L30A/E32Q/Q95E | 2.25 | 3 of 3 | 3 of 9 |
| V29A/S33N/R60C | 4.51 | 3 of 3 | 6 of 9 |
| S58C/Q95C/P101V | 0.72 | 3 of 3 | 0 of 9 |
| L30M/S33W/Q95H | 2.91 | 3 of 3 | 0 of 9 |
| Y31A/N37D/R99P | 0.78 | 3 of 3 | 0 of 9 |
| V29R/V39P/L102I | 4.17 | 1 of 3 | 5 of 9 |
| S25P/K36W/R60V | not detected | 0 of 3 | 0 of 9 |
| S25H/R99A | not detected | 0 of 3 | 0 of 9 |
| S28G/K36C/V39K | not detected | 0 of 3 | 0 of 9 |
| K24D/N37S | 2.21 | 3 of 3 | 2 of 9 |
| S25H/N37C/T59V | 1.83 | 3 of 3 | 4 of 9 |
| V39C/A57R/Y97S | not detected | 0 of 3 | 0 of 9 |
| Y31T/V39E/R60P | 4.73 | 3 of 3 | 6 of 9 |
| E32T/N37T/Y97V | not detected | 0 of 3 | 1 of 9 |
| K24H/A40S/L102D | not detected | 0 of 3 | 1 of 9 |
| S28C/S58V/Q95T | not detected | 0 of 3 | 0 of 9 |
| N37Q/W56A/S103G | 1.31 | 3 of 3 | 2 of 9 |
| N35P/W56I | 3.21 | 2 of 3 | 4 of 9 |
| S26Q/E32K/L102D | 3.73 | 3 of 3 | 2 of 9 |
| S25I/S26T/A40M | not detected | 0 of 3 | 0 of 9 |
| K24C/S28E/R34P | 4.82 | 1 of 3 | 4 of 9 |
| K24P/L30G | 4.14 | 3 of 3 | 4 of 9 |
| S33E/R34W/N35D | 0.85 | 3 of 3 | 6 of 9 |
| E32P/S58L/P101Y | not detected | 0 of 3 | 2 of 9 |
| W56R/T59M | 1.40 | 3 of 3 | 1 of 9 |
| L30G/Y97I/S103R | 0.78 | 3 of 3 | 4 of 9 |
| Q95N/Y97L/S103N | 1.70 | 2 of 3 | 0 of 9 |
| N37S/V39I/S103V | 1.39 | 3 of 3 | 3 of 9 |
| Q27M/W56M/R60L | 2.58 | 3 of 3 | 2 of 9 |
| R34G/S62C/Q95G | 3.38 | 3 of 3 | 3 of 9 |
| E61N/Y97F/L100C | 0.91 | 3 of 3 | 4 of 9 |
| K36P/A40Q/R60L | 4.21 | 2 of 3 | 7 of 9 |
| S28Y/V39R/S103C | 4.16 | 1 of 3 | 4 of 9 |
| Y31G/W56A/S58M | 0.11 | 3 of 3 | 1 of 9 |
| L30A/S62C/R99H | 1.84 | 3 of 3 | 2 of 9 |
| K24G/Q27S/Q96L | 3.10 | 3 of 3 | 4 of 9 |
| R34Y/N35I/V39D | 3.80 | 1 of 3 | 6 of 9 |
| R34P/N37P/E61R | 3.78 | 3 of 3 | 6 of 9 |
| E61R/S62W/L102T | 4.70 | 1 of 3 | 0 of 9 |
| A40F/W56C/L102G | not detected | 0 of 3 | 0 of 9 |
| S33N/K36F/V39A | 3.43 | 2 of 3 | 3 of 9 |
| V29Q/N37D/T59V | 0.48 | 3 of 3 | 1 of 9 |
| S58W/R60L | 3.51 | 3 of 3 | 1 of 9 |
| S33M/S38P/Y97A | 3.94 | 3 of 3 | 3 of 9 |
| K24N/S58F/R99C | 3.96 | 1 of 3 | 0 of 9 |
| Y31K/S38R/W56V | 3.44 | 1 of 3 | 1 of 9 |

The 5 strongest on average among those seen in every replicate, once more:

| changes | mean log10 Kd (nM) | seen in | empty controls |
|---|---|---|---|
| Y31G/W56A/S58M | 0.11 | 3 of 3 | 1 of 9 |
| L30M/R34D/N35D | 0.28 | 3 of 3 | 1 of 9 |
| V29Q/N37D/T59V | 0.48 | 3 of 3 | 1 of 9 |
| S25I/E32Y/P101A | 0.66 | 3 of 3 | 2 of 9 |
| S58C/Q95C/P101V | 0.72 | 3 of 3 | 0 of 9 |